Assays:
[1] = target: cellular receptors (on normal and Pompe fibroblast cells); test: cell-based or functional assay
[2] = target: cation-independent mannose-6-phosphate receptor (CIMPR); test: CIMPR affinity column, same condition (FIG. 5)
[3] = target: cation-independent mannose-6-phosphate receptor (CIMPR); test: CIMPR affinity chromatography, different production batches (FIG. 5)
[4] = target: cation-independent mannose-6-phosphate receptor (CIMPR); test: M6P receptor (CIMPR) plate binding assay
[5] = target: cation-independent mannose-6-phosphate receptor (CIMPR); test: CIMPR affinity column, elution with free M6P gradient, fractions by GAA activity

Row | Substance | concentration that saturates cellular receptors (uptake into fibroblasts, internalized GAA activity) [1] | percent of rhGAA bound [2] | percent CIMPR receptor binding [3] | Kd [4] | uptake efficiency constant (Kuptake) [1] | percent of rhGAA that did not bind (flow through) [5] | percent of rhGAA with M6P that can target it to the CIMPR (bound fraction) [5]
1 | ATB200 rhGAA (recombinant human acid α-glucosidase produced from CHO cell line GA-ATB200) (from UniProt P10253 57-952) (enzyme) | 20 nM | > 70% | > 70% | 2 to 4 nM |  |  | 
2 | LUMIZYME® (alglucosidase alfa, conventional rhGAA product) (from UniProt P10253 57-952) (enzyme) | 250 nM |  |  |  | 56 nM | 78% | 22%
3 | MYOZYME® (alglucosidase alfa, conventional rhGAA product) (from UniProt P10253 57-952) (enzyme) |  |  |  |  |  | 73% | 27%

From patent US20240197839A1, “Recombinant Human Acid Alpha-Glucosidase and Uses Thereof” (Amicus Therapeutics, Inc., priority 2021, published 2024)
